Source: PubChem BioAssay
S100A4 inh HTS = blocks human S100A4 binding to myosin IIA peptide | S100A4/TAMRA-MyoIIA peptide fluorescence polarization | inhibition, % at 10.7 µM | P26447 | 360,000 compounds, 0.14% hits;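 active = mean inhibition of at least 70% across replicates, with every replicate also reaching that level; inconclusive = mean inhibition reaches 70% but some replicates fall short; inactive = mean inhibition below 70%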
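Material: human S100A4 monomer with TAMRA-labelled myosin IIA peptide; buffer or medium: HEPES pH 7.2 with CaCl2, KCl, NaCl, DTT, Triton; compound dosing: one concentration per compound; schedule: 5 min incubation before reading; benchmarks: neutral control DMSO, positive control TFP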
UUG fidelity = modulators of start codon recognition fidelity in yeast; AID 602363; activity score, % at 18.7 µM; S. cerevisiae UUG-firefly luciferase reporter, luminescence/redox ratio; actives 0.13% (n = 350,000);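 active = replicate mean at a twofold rise or more, about +100% in these data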;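 note: firefly luciferase made from a UUG start codon reports start codon fidelity; reporter light over untreated wells divided by growth signal over untreated wells; some hits fall short of that in this replicate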
E-sel inducer = induces E-selectin expression in human endothelial cells | P16581 | HUVEC E-selectin immunofluorescence imaging; normalized: neutral wells 0, TNF-alpha wells 100 | activation, % at 7.58 µM | 260,000 compounds, 0.37% hits | AID 686992;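 active = mean E-selectin-positive cell signal at least 10% of the positive control, reached in at least 60% of replicates, without over 20% cell loss; inconclusive = no rule given, readout overlaps actives, possibly toxicity-flagged; inactive = the rest, including those meeting only one limit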
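System: HUVEC / Compound: single concentration / Signal: immunofluorescence imaging / Read-out: percent E-selectin-positive cells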
MLL AF4-AF9 inh = MLL-AF4/AF9 protein interaction inhibition | P42568 | AlphaScreen, biotin-AF4 peptide binding to FLAG-AF9 | inhibition, % at 10 µM | 350,000 compounds, 0.47% hits | AID 651704;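 active = every replicate reaching a set inhibition limit, whatever the replicate mean, cut at about 25% in these data; inconclusive = mean inhibition reaches that limit but some replicates miss it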;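 also: 0% = plate neutral control median and 100% = total signal loss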
ARNT-TACC3 inh = disruptors of human ARNT/TACC3 interaction; inhibition, % at 9.99 µM; AlphaScreen His-ARNT PAS-B/GST-TACC3 binding, luminescence; TACC3 fragment carries E629A point mutation; 390,000 compounds, 0.66% hits;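 active = mean inhibition of replicates at least 50% and at least half of replicates each reaching 50%; inconclusive = half or more replicates reach 50% but mean below 50%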;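 also: 0% = complete ARNT plus TACC3 wells and 100% = ARNT alone without TACC3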
ERAP1 HTS inh = inhibitors of human ERAP1 aminopeptidase | recombinant ERAP1, Leu-AMC fluorescence, 60 min | inhibition, % at 10.7 µM | 340,000 compounds, 0.15% hits | AID 652197;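 active = mean replicate inhibition of at least 30%, or all replicates individually reaching that 30% level; inactive = mean below 30% and not every replicate reaching it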;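 also: 0% = neutral control wells and 100% = L-leucinethiol positive control wells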
Starred values were filed as active, the others as inactive; u = inconclusive; x = no result. Hits are enriched below; roughly 1.3% of the tested compounds scored in any of these assays.

Every second line gives: ERAP1 HTS inh	UUG fidelity	S100A4 inh HTS	MLL AF4-AF9 inh	ARNT-TACC3 inh	E-sel inducer
1. O=C(N/N=C/c1ccc(O)c(O)c1O)/C(=C/c1ccc([N+](=O)[O-])cc1)NC(=O)c1ccccc1
→ x	-24.5	x	x	64.3*	x
2. Cc1c(NC(=S)N/N=C/c2cc([N+](=O)[O-])ccc2O)c(=O)n(-c2ccccc2)n1C
→ 10.4	-28.9	-3.8	4.2	69.6*	-0.2
3. CC1CCCCC1NC(=O)Cn1nc(-c2ccccc2)ccc1=O (stereo not drawn)
→ -2.0	x	6.9	26.9*	2.1	x
4. Cc1ccc(C(NC(=O)Nc2ccccn2)C(Cl)(Cl)Cl)cc1F (stereo not drawn)
→ 0.9	x	-4.0	-0.2	-1.3	41.6*
5. O=S(=O)(c1ccccc1)N1C[C@@H]2N[C@H](C1)C2c1ccc(-c2ccc(F)cc2)cc1 (stereo partly drawn)
→ 0.6	x	-8.3	-5.8	x	0.4
6. Cc1ccc(OCC(=O)Nc2ccc(S(=O)(=O)N(C)C3CCN(C)CC3)cc2)c(C)c1
→ 89.8*	-17.3	-4.1	4.9	2.3	0.8
7. COc1ccccc1OCC(=O)Nc1ccc(S(=O)(=O)N2CCCC2)cc1
→ -3.7	0.2	0.5	-0.1	-1.7	0.5
8. COc1ccccc1OCC(=O)Nc1ccc(S(=O)(=O)N2CCN(C)CC2)cc1
→ 1.2	4.2	2.5	3.5	3.0	333.2*
9. O=C(NCCc1ccncc1)[C@@H]1[C@@H](CO)[C@@H]2Cn3c(ccc(-c4ccc(F)cc4)c3=O)[C@H]1N2
→ -0.1	x	4.0	-3.2	-2.2	0.0
10. O=S(=O)(O)c1cc(O)c(N=Nc2ccc(O)cc2O)c2ccccc12
→ 16.9	-16.0	18.9	34.2*	93.5*	65.5*

Fetched by compound from the list above:
Every second line gives: ERAP1 HTS inh	UUG fidelity	S100A4 inh HTS	MLL AF4-AF9 inh	ARNT-TACC3 inh	E-sel inducer
6. Cc1ccc(OCC(=O)Nc2ccc(S(=O)(=O)N(C)C3CCN(C)CC3)cc2)c(C)c1
→ 89.8*	-17.3	-4.1	4.9	2.3	0.8
7. COc1ccccc1OCC(=O)Nc1ccc(S(=O)(=O)N2CCCC2)cc1
→ -3.7	0.2	0.5	-0.1	-1.7	0.5

Continued:
Every second line gives: ERAP1 HTS inh	UUG fidelity	S100A4 inh HTS	MLL AF4-AF9 inh	ARNT-TACC3 inh	E-sel inducer
11. CN(C)CC/C=C1/c2cc(F)ccc2Sc2ccc(Cl)cc21
→ 3.5	9.3	-0.8	37.2*	23.1	x
12. Cc1[nH]c2ccccc2c1C(=O)CSc1ccccc1
→ x	-3.2	x	x	-5.2	x
13. Cc1[nH]c2ccccc2c1C(=O)CSc1nnc(C2CC2)o1
→ -4.2	-8.4	0.8	26.2*	5.3	x
14. O=C(N/N=C/c1ccccn1)c1ccc(Br)o1
→ x	-6.8	x	x	69.4*	x
15. COCCN(C(=O)c1c(C)noc1C)c1c(N)n(CC(C)C)c(=O)[nH]c1=O
→ 82.6*	-19.1	1.2	1.0	5.2	5.4
16. Oc1ccc(/C=N/N=C/c2ccc(O)c(O)c2)cc1O
→ 2.5	-16.3	-3.4	4.7	12.7	-0.1
17. O=C(/C(=N/N=C/c1ccc(O)c(O)c1)c1ccccc1)c1ccccc1
→ 3.4	-35.8	-2.3	35.5*	16.1	1.3
18. Cc1cccc2sc(NNC(=O)c3ccc(S(=O)(=O)N4CC(C)CC(C)C4)cc3)nc12 (stereo not drawn)
→ 3.9	-21.4	1.5	6.5	48.6*	x
19. Cc1ccc(COc2ccc(/C=N/O)cc2)cc1
→ -1.3	x	1.1	3.2	-5.3	106.6*
20. CCOc1ccc(/C=N/O)cc1
→ x	-13.4	x	x	23.4	0.0

By substructure, the compounds so far with an aryl methoxy group (two)
Every second line gives: ERAP1 HTS inh	UUG fidelity	S100A4 inh HTS	MLL AF4-AF9 inh	ARNT-TACC3 inh	E-sel inducer
7. COc1ccccc1OCC(=O)Nc1ccc(S(=O)(=O)N2CCCC2)cc1
→ -3.7	0.2	0.5	-0.1	-1.7	0.5
8. COc1ccccc1OCC(=O)Nc1ccc(S(=O)(=O)N2CCN(C)CC2)cc1
→ 1.2	4.2	2.5	3.5	3.0	333.2*

Following part
Every second line gives: ERAP1 HTS inh	UUG fidelity	S100A4 inh HTS	MLL AF4-AF9 inh	ARNT-TACC3 inh	E-sel inducer
21. COc1ccc2c3c([nH]c2c1)[C@H](CO)N(C(=O)c1cccnc1)CC31CN(Cc2cccnc2)C1
→ 0.6	x	-2.6	1.2	x	-0.3
22. COc1cc(NCc2ccccc2)c2ncn(C(C)C)c2c1
→ 9.8	19.5	3.4	-5.8	13.9	0.0
23. CCC(CN(C)C)Oc1cc(NCc2ccccc2)c2ncn(C(C)C)c2c1 (stereo not drawn)
→ x	-13.2	x	x	51.3*	x
24. C[C@@H]1CCCCO[C@@H](CN(C)CC2CC2)[C@H](C)CN([C@H](C)CO)C(=O)c2cc(NC(=O)Nc3ccc4c(c3)OCO4)ccc2O1
→ -0.4	x	5.6	u	8.7	0.8
25. C[C@H](CO)N1C[C@H](C)[C@@H](CN(C)CC2CC2)OCCCC[C@H](C)Oc2ccc(NC(=O)Nc3ccc4c(c3)OCO4)cc2C1=O
→ -1.3	x	-3.4	28.9*	1.5	0.0
26. COc1ccc(NC(=O)Nc2ccc3c(c2)C(=O)N([C@H](C)CO)C[C@@H](C)[C@H](CN(C)CC2CC2)OCCCC[C@@H](C)O3)cc1
→ -0.5	x	-1.2	27.7*	6.5	-0.1
27. CCCN(C)C[C@@H]1OCCCC[C@@H](C)Oc2ccc(NC(=O)Nc3ccc4c(c3)OCO4)cc2C(=O)N([C@H](C)CO)C[C@H]1C
→ 0.0	38.8	8.3	25.3*	39.6	0.0
